{
  "source": "ChEMBL document CHEMBL4145683",
  "about": "“Total Synthesis and Structure-Activity Relationships Study of Odilorhabdins, a New Class of Peptides Showing Potent Antibacterial Activity” (J Med Chem, 2018)",
  "tested_on": "Escherichia coli",
  "conditions": "ATCC 25922",
  "data": [
    {"sequence": "GENTAMICIN", "values": [
      {"measurement": "MIC", "value": 0.5, "unit": "µg/mL"}
    ]}
  ]
}
